The data set can be described thus: Liver microsome assay (metabolic stability). Type of data set: in vitro ADME. As to conditions: pooled male mouse liver microsomes, 2 μM. As to the method:
Male CD-1 mouse liver microsomes were obtained from commercial sources (Corning #452701). The following master solution was prepared before compound addition:
Two separate experiments were performed as follows: a) With Cofactors (NADPH and UDPGA): 40 μL of 10 mM NADPH and 40 μL of 20 mM UDPGA were added to the incubations. The final concentrations of microsomes, NADPH and UDPGA were 0.5 mg/mL, 1 mM and 2 mM, respectively. b) Without Cofactors (NADPH and UDPGA): 10 μL of 20 mg/mL liver microsomes and 80 μL of ultra-pure water were added to the incubations. The final concentration of microsomes was 0.5 mg/mL. The mixture was pre-warmed at 37° C. for 5 minutes.
The reaction was started with the addition of 4 μL of 200 μM control compound or test compound solution. Verapamil was used as positive control in this study. The final concentration of test compound or control compound was 2 μM. The incubation solution was incubated in water bath at 37° C. Aliquots of 50 μL were taken from the reaction solution at 0.5, 5, 15, 30, 45 and 60 minutes. The reaction was stopped by the addition of 5 volumes of cold acetonitrile with IS (100 nM alprazolam, 200 nM caffeine and 100 nM tolbutamide). Samples were centrifuged at 3,220 g for 40 minutes. […] The in vitro half-life (in vitro t1/2) was determined from the slope value of the LC-MS signal of the test compound.
(In general: Liver microsomes are vesicles of endoplasmic reticulum, rich in cytochrome P450 enzymes.)

Consider `Cc1n[nH]c2c1C(c1cc(CO)cc(-c3cccc(CC(N)=O)c3)c1)(C(C)C)C(C#N)=C(N)O2` (centres unmarked) [HK-X3], for which the “CLint (replicate 1)” value (replicate 1) is listed as 91.87 μL/min/mg protein. Under “replicate 2”, the “CLint (replicate 2)” value was 94.28 μL/min/mg protein.

The values are drawn from US10077273B2, “SHMT inhibitors” (The Trustees of Princeton University, priority 2016, dated 2018).
